Data reported in patent US7381572B2, “Reagents and procedures for multi-label high-specificity labeling” (Rutgers, The State University of New Jersey, priority 2004, dated 2008).

Assay: Spectroscopic properties of fluorochrome conjugates in methanol
Assay type: physicochemical
Conditions: for λmax,em: emission maximum; for λmax,exc: excitation maximum

Row | Substance | λmax,em | λmax,exc
1 | Cy3 bis-propionamido-phenylarsineoxide | 566 nm | 552 nm
2 | Cy5 bis-propionamido-phenylarsineoxide | 665 nm | 647 nm
